Source: patent US20240199613A1 (TAKEDA PHARMACEUTICAL COMPANY LIMITED, priority 2021, published 2024)

Chains of the proteins cited; added tags and fusions are not shown. Residues count along the entry.
UniProt P03952, 391-638 limits assumed: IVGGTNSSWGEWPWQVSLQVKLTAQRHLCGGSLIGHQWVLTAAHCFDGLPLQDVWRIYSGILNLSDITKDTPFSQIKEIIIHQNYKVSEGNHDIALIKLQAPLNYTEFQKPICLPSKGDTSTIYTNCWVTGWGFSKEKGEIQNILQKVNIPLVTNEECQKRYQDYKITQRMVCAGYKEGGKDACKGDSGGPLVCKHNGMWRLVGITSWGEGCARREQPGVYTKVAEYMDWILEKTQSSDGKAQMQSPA
UniProt P03952, 20-390 partner limits assumed: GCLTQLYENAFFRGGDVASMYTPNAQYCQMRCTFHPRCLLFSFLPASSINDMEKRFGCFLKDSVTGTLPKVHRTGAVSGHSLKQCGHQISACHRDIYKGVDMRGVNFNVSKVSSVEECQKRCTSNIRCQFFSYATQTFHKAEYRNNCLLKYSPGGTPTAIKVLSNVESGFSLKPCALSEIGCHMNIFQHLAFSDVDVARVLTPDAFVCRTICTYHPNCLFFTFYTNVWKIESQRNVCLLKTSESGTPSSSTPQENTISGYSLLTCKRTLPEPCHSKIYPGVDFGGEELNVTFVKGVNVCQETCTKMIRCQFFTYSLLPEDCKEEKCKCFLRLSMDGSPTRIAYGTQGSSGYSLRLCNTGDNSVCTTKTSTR

Key:
[1] = target: human activated kallikrein enzyme (Homo sapiens, UniProt P03952); experiment: Inhibition of activated plasma kallikrein, fluorogenic peptide substrate (PFR-AMC) assay, 500 pM enzyme format; details: read-out: Primary Dose Response Assay: Average EC50; 500 pM activated kallikrein, 300 uM PFR-AMC, 30 min preincubation, 10 min reaction, room temperature
Method: Compounds were evaluated for inhibition of the human activated kallikrein enzyme in two formats of an assay employing a fluorogenic peptide substrate. In one assay format, the concentrations of reagents were as follows: 20 mM Tris pH 7.5, 1 mM EDTA, 150 mM sodium chloride, 0.1% PEG-400, 0.1% Triton X-100, 500 pM activated kallikrein enzyme, 300 uM Pro-Phe-Arg-7-amido-4-methylcoumarin (PFR-AMC) substrate. Prior to reaction initiation with substrate, enzyme and inhibitors were preincubated for 30 min at room temperature. After initiation with substrate, reactions were incubated for 10 min at room temperature and fluorescence emission at 460 nm from 380 nm excitation measured with a microplate reader. In another assay format, the concentrations of reagents were as follows: 20 mM Tris pH 7.5, 1 mM EDTA, 150 mM sodium chloride, 0.1% PEG-400, 0.1% Triton X-100, 5 pM activated kallikrein enzyme, 300 uM PFR-AMC substrate. Prior to reaction initiation with substrate, enzyme and inhibitors were preincubated for 30 min at room temperature. After initiation with substrate, reactions were incubated for 18 hr at room temperature and fluorescence emission at 460 nm from 380 nm excitation measured with a microplate reader.
Table 6 provides the results of the assay in the format with 500 pM activated kallikrein assay. For the compounds listed in Table 6, the EC50 values are reported according to the following ranges: A≤1.0 nM; 1.0 nM<B≤10 nM; 10 nM<C≤100 nM; 100 nM<D≤6500 nM; 6500 nM<E.

plasma kallikrein = plasma kallikrein (Homo sapiens, UniProt P03952); experiment: Neat human plasma assay: contact pathway-activated (FXIIa) plasma, PFR-AMC substrate; details: read-out: Human Plasma Assay: IC90; citrated human plasma (78% final), 10 nM human FXIIa, 100 μM PFR-AMC, room temperature
Method: To analyze inhibition of plasma kallikrein in an ex vivo setting, the potency of compounds was measure in contact pathway-activated plasma assays. In a fluorogenic peptide substrate assay, test compounds dissolved in DMSO were added to sodium citrate collected human or rat plasma in a 96-well microplate. Alternatively, citrated plasma was collected from rats administered the compounds orally or by IV. 10 nM of human FXIIa (Enzyme Research Laboratories) diluted in pKal buffer (20 mM Tris-HCl, pH 7.5, 150 mM NaCl, 1 mM EDTA, 0.1% PEG-8000, and 0.1% Triton X-100) was added to the plasma, followed by the 100 μM of the profluorescent, synthetic plasma kallikrein substrate PFR-AMC (also diluted in pKal buffer). Final plasma concentration in the reaction was 78%. Fluorescence was immediately monitored by excitation/emission wavelengths of 360 nm/480 nm respectively over a period of 5 minutes in a microplate reader. The resulting linear increase in fluorescence emission (reflecting pKal proteolysis of PFR-AMC substrate) was fit to extract a proteolytic rate (fluorescent units over time), and this rate was subsequently plotted against compound inhibitor concentration. Resulting plots were fit to a standard 4-parameter IC50/IC90 equation to determine min/max values, IC50/90, and slope. All experimental steps were performed at room temperature.
For the compounds listed in Table 7, the IC90 values are reported according to the following ranges: A≤400 nM; 400 nM<B≤1,500 nM; 1,500 nM<C≤10,000 nM; 10,000 nM<D≤22,000 nM.

EC50 [1] [nM]	IC90 (plasma kallikrein) [nM]	SMILES
1 to 10	< 400	Cc1ccnc(C2CC2c2cc(N3CCOCC3)c3ccc(NCc4cn5cc(C6CC6)cc(N6CC(=O)N(C)C6=O)c5n4)cc3n2)n1 (single isomer, unassigned) [Example 42]
< 1	< 400	Cc1ccnc(C2CC2c2cc(N3CCOCC3)c3ccc(NCc4cn5cc(C6CC6)cc(N6CC(=O)N(C)C6=O)c5n4)cc3n2)n1 (single isomer, unassigned) [Example 41]
< 1	< 400	COc1cc(C2CC2c2nccc(C)n2)nc2cc(NCc3cn4cc(C5CC5)cc(N5CC(=O)N(C)C5=O)c4n3)ccc12 (single isomer, unassigned) [Example 23]
1 to 10	–	COc1cc(C2CC2c2nccc(C)n2)nc2cc(NCc3cn4cc(C5CC5)cc(N5CC(=O)N(C)C5=O)c4n3)ccc12 (single isomer, unassigned) [Example 22]
